{
  "sequences": {"note": "The chains behind the UniProt entries cited, without tags or fusion partners. Where a name states a change or a piece, a line headed by the entry shows the natural chain unless it says otherwise. Residues count along the entry.", "UniProt P53341": "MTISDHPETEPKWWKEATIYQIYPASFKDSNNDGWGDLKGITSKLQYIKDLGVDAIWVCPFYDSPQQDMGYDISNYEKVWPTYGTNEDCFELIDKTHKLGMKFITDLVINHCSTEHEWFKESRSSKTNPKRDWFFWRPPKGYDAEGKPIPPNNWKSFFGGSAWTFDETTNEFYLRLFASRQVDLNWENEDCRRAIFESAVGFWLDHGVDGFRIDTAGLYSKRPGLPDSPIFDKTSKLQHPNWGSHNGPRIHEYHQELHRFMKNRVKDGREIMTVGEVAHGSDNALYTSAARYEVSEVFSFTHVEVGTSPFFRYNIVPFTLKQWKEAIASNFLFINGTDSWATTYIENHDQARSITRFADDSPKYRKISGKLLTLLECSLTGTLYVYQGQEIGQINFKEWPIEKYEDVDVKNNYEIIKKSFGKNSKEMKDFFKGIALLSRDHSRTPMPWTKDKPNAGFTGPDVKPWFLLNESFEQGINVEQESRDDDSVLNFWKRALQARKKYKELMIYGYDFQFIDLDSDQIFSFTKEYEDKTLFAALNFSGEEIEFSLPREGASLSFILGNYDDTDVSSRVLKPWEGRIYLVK", "UniProt Q42656, 16-378": "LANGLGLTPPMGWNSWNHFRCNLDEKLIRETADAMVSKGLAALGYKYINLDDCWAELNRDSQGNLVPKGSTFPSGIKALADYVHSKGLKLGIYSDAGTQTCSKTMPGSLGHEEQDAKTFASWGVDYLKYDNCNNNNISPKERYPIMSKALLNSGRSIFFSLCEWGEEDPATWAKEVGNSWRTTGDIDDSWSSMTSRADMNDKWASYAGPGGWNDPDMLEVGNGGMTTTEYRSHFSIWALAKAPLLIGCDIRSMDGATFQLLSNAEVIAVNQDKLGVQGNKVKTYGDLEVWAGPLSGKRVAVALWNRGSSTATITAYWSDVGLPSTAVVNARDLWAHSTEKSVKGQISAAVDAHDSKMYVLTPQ"},
  "source": "paper PMC8698521",
  "about": "(RSC Advances, 2021)",
  "test_in_all_cases": "Glycosidase inhibition, spectrophotometric p-nitrophenyl glycoside assay",
  "key": {"[1]": {"biological_target": "α-Glucosidase from Saccharomyces cerevisiae (Saccharomyces cerevisiae, UniProt P53341)"}, "[2]": {"biological_target": "α-Galactosidase from green coffee beans (Coffea arabica, UniProt Q42656)"}, "[3]": {"biological_target": "T1, α-Mannosidase from jack bean (Canavalia ensiformis, UniProt C0HJB3)", "T1 sequence (C0HJB3 1-981)": "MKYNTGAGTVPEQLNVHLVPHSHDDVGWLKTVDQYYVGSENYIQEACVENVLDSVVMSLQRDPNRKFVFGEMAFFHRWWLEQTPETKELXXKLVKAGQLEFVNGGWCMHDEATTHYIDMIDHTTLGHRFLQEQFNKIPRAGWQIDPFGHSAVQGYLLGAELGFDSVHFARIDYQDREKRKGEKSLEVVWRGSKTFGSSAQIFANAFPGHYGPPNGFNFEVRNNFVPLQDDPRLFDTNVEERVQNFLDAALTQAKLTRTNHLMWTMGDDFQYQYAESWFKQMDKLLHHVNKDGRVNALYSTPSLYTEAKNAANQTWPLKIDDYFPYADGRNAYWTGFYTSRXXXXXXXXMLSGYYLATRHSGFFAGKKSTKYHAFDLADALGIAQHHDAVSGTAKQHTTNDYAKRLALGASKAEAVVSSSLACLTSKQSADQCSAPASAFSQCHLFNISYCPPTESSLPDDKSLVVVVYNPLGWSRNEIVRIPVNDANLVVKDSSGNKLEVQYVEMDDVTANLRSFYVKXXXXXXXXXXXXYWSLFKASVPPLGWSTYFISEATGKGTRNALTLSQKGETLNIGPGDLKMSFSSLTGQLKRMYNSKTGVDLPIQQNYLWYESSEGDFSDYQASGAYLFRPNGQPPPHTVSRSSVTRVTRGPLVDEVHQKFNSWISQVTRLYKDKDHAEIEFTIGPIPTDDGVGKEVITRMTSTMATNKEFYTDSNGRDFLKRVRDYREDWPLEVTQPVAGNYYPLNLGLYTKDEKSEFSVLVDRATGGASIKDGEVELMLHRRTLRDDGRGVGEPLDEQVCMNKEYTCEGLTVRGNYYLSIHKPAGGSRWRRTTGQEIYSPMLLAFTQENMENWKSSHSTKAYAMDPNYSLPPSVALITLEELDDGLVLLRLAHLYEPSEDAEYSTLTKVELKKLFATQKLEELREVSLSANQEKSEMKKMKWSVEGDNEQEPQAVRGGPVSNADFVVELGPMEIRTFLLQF"}},
  "note": "pIC50: −log10 of the molar value.",
  "data": [
    {"smiles": "O=C1CC=C(CO)[C@@H](O)[C@H](O)[C@@H]1O", "note": "[Compound 4, (5R,6S,7S)-5,6,7-Trihydroxy-4-(hydroxymethyl)cyclohept-3-enone]", "values": [
      {"measurement": "pIC50", "setting": "[1]", "result": 2.82}
    ]},
    {"smiles": "OCC1=CC[C@H](O)[C@@H](O)[C@@H](O)[C@@H]1O", "note": "[Compound 5, (1S,2R,3S,4R)-5-(Hydroxymethyl)cyclohept-5-ene-1,2,3,4-tetraol]", "values": [
      {"measurement": "pIC50", "setting": "[1]", "result": 1.94}
    ]},
    {"smiles": "OCC1=CC[C@@H](O)[C@@H](O)[C@@H](O)[C@@H]1O", "note": "[Compound 6, (1R,2R,3S,4R)-5-(Hydroxymethyl)cyclohept-5-ene-1,2,3,4-tetraol]", "values": [
      {"measurement": "pIC50", "setting": "[1]", "result": 2.54},
      {"measurement": "pIC50", "setting": "[2]", "result": 2.89}
    ]},
    {"smiles": "C[C@H]1CC[C@@H](O)[C@@H](O)[C@@H](O)[C@@H]1O", "note": "[Compound 15, (1R,2R,3S,4R,5S)-5-Methylcycloheptane-1,2,3,4-tetraol]", "values": [
      {"measurement": "pIC50", "setting": "[1]", "result": 2.02}
    ]},
    {"smiles": "C[C@@H]1CC[C@@H](O)[C@@H](O)[C@@H](O)[C@@H]1O", "note": "[Compound 16, (1R,2R,3S,4R,5R)-5-Methylcycloheptane-1,2,3,4-tetraol]", "values": [
      {"measurement": "pIC50", "setting": "[1]", "result": 2.43},
      {"measurement": "inhibition at 1000 µM", "setting": "[1]; pH 7.2, read-out: Percentage inhibition (%) at 1 mM concentration of the inhibitor", "result": 24.3, "unit": "%"},
      {"measurement": "pIC50", "setting": "[3]", "result": 2.37}
    ]}
  ]
}
